Reference: publication PMC5650142, “GPR40 partial agonists and AgoPAMs: Differentiating effects on glucose and hormonal secretions in the rodent” (PLoS ONE, 2017)

The chains behind the UniProt entries cited, without tags or fusion partners.
UniProt O14842, whole entry: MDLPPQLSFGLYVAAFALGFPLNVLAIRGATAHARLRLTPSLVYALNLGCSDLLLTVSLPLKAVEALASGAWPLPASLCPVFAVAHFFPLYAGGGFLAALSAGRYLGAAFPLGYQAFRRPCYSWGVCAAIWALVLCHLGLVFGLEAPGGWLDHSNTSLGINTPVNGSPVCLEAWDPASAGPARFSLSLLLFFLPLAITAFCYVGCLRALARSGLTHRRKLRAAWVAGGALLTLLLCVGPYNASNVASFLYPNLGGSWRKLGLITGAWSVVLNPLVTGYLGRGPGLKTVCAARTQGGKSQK

Molecular target: human GPR40 (Homo sapiens, UniProt O14842)
Assay: GPR40 binding assay, AgoPAM tracer [3H]25 ([3H]AP9);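 further: 100% bound is tracer binding in DMSO-only wells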
Parameters: expressed in transfected cells; host or cells: CHO / CHO-K1 cells, membrane preparation
Settings: radioligand L-005306257; dose 10.0433 nM
Experimental: Two small molecule tracers, the partial agonist [3H][…] and the AgoPAM [3H]25, are used to measure compound affinity at each site as described previously. Because of the allosteric coupling of the two sites and the nature of the assay, addition of a compound will either displace (binds to same site) or augment (binds to allosterically coupled site) radiotracer. Membranes expressing GPR40 were prepared from CHO cells stably expressing human GPR40. […] Sigma P8830) and were homogenized in 50 ml aliquots with a motor-driven glass Dounce homogenizer, 15 strokes at 1900 rpm on wet ice, repeating once. Homogenates were centrifuged at 2200 rpm for 10 min at 4°C. Supernatants were carefully removed and pooled. Homogenization and centrifugation were repeated until the debris pellet was translucent to maximize membrane recovery. Supernatants were then centrifuged at […] rpm for 20 min. at 4°C. […] Protein concentration was determined by Pierce BCA kit. […] The beads and membrane mixture is then vigorously mixed for 30 minutes at room temperature prior to addition to the assay. […] The plates are allowed to settle for 16 hours and then counted on a TopCount scintillation counter (PE). […] Maximal % bound and IC50 are then determined for each test compound. […] The plate is briefly mixed and incubated for 3-18 h at room temperature, before it is read on a MicroBeta plate counter (Perkin Elmer, MS, USA).

- %Bound: 118.83%
SMILES: Cc1cc(OCCCS(C)(=O)=O)cc(C)c1-c1cccc(COc2ccc3c(c2)OC[C@H]3CC(=O)O)c1 [TAK-875, reference compound]
